Publication PMC8308830, “Single-Agent and Fixed-Dose Combination HIV-1 Protease Inhibitor Drugs in Fission Yeast (Schizosaccharomyces pombe)” (Pathogens, 2021)

Key:
[1] = biological target: T1, HIV-1 PR (Human immunodeficiency virus type 1 group M subtype B, UniProt P12497); details: 150 μM drug; G31 cells; 20 h post-gene induction
[2] = biological target: T1, HIV-1 PR; assay: cell-based; details: EC50 in Fission Yeast /Pure Compound, PR-on RE294 cells, growth (OD650) at 72 h post-gene induction relative to PR-off cells

SMILES	inhibition of HIV-1 PR proteolytic cleavage of GFP-MA↓CA-Vpr (Vpr pattern vs GFP pattern) [1]	EC50 [2]
CC(C)CN(C[C@@H](O)[C@H](Cc1ccccc1)NC(=O)O[C@H]1CCOC1)S(=O)(=O)c1ccc(N)cc1 [APV, Amprenavir]	suppressed the PR activities	
Cc1cccc(C)c1OCC(=O)N[C@@H](Cc1ccccc1)[C@@H](O)C[C@H](Cc1ccccc1)NC(=O)[C@H](C(C)C)N1CCCNC1=O [LPV, Lopinavir]		4.59 ± 0.06 µM
